Measured values published in publication PMC11357161, “Phytochemical Analysis, Biological Activities, and Docking of Phenolics from Shoot Cultures of Hypericum perforatum L. Transformed by Agrobacterium rhizogenes” (Molecules, 2024).
Marks after values point to notes of the source that are not given here.

Protein sequences, listed by entry. Tags and fused reporters are not part of them. Residues count along the entry.
UniProt O42275, 24-633: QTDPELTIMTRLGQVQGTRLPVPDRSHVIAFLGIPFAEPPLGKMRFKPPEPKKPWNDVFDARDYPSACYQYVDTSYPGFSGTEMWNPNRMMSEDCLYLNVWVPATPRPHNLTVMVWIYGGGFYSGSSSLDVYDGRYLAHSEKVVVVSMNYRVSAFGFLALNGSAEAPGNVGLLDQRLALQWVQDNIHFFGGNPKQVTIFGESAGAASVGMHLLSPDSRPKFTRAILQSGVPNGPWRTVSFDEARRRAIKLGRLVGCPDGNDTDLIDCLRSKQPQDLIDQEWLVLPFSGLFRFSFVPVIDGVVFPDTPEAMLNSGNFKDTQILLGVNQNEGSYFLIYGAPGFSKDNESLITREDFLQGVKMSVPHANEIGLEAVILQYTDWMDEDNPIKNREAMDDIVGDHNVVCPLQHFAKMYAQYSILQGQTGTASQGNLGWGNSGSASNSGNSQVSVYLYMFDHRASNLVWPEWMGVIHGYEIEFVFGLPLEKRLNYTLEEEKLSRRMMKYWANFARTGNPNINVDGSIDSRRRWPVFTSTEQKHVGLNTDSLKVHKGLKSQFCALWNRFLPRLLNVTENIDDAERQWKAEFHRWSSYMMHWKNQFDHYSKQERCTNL
UniProt P06276, 29-602, species assumed: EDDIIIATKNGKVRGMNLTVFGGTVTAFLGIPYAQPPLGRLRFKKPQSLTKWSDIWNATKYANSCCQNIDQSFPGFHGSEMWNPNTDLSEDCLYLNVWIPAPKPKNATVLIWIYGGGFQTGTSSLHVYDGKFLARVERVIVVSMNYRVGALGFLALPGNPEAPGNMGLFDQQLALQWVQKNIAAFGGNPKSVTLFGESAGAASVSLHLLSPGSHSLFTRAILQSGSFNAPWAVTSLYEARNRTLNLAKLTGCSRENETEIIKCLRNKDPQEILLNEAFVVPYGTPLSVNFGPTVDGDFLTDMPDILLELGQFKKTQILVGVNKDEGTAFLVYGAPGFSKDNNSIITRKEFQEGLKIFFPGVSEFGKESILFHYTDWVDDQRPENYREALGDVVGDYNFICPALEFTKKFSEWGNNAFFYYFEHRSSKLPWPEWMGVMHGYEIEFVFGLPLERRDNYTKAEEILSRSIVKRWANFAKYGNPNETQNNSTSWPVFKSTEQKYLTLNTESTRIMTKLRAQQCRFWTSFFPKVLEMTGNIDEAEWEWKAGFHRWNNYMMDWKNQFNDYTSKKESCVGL

How the values were obtained:
[1] = target: acetylcholinesterase (AChE) (Electrophorus electricus, UniProt O42275); experiment: AChE inhibitory activity in vitro; format: biochemical; settings: concentration that inhibits 50% of enzyme activity; mean ± SD, three replicates
Protocol: (§1) Shoot methanolic extracts were evaporated in a freeze-dryer (Labconco, Kansas City, MO, USA), and dry extracts were dissolved in 50% dimethyl sulfoxide. The stock solutions of TSL and NTS extracts were serially diluted for performing enzyme-inhibitory assays. The protocols for MAO-A, AChE, BChE, TYR, α-AM, α-GL, PL, and CHE inhibitory activities were presented in our previous studies. […] Three replicates were used for all enzyme-inhibitory tests.

[2] = target: butyrylcholinesterase (BChE) (Homo sapiens, UniProt P06276); experiment: BChE inhibitory activity in vitro; format: biochemical; settings: concentration that inhibits 25% of enzyme activity; mean ± SD, three replicates
Protocol: as §1

## CNC(=O)Oc1ccc2c(c1)[C@]1(C)CCN(C)[C@@H]1N2C [Eserine]
[1]
  AChE (IC50): 11.97 ± 0.64 ^a µg·mL^−1
[2]
  BChE (IC25): 0.10 ± 0.02 ^a µg·mL^−1
